Measured values from paper PMC7722097 (ChemMedChem, 2020).

Chains of the proteins cited; added tags and fusions are not shown. Residues count along the entry.
UniProt P98170, 253-347 limits assumed: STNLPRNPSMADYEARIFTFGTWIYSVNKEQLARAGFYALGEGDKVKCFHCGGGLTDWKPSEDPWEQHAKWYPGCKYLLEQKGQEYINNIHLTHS

Key:
[1] = target: HA-BIR3 of XIAP-expressing HEK293T cells (Homo sapiens, UniProt P98170); test: Immunoblot of HA-BIR3 XIAP-expressing HEK293T cells; type: cell-based; conditions: 10 μM compound, 6 h, anti-HA antibody
[2] = target: wt-BIR3 (Lys311) domain of XIAP (Homo sapiens, UniProt P98170); test: Denaturation thermal shift, wt BIR3 of XIAP; conditions: approximate values or bounds in running text; incubation 30 min or 2 h

## CN[C@@H](C)C(=O)N[C@H](C(=O)N1CCC[C@H]1c1nc(C(=O)c2ccc(F)cc2)cs1)C1CCCCC1 [LCL161, reference compound]
[1]
  Stabilization of HA-BIR3 in cell (western blot band intensity): stabilized the BIR3 domain in cell
[2]
  ΔTm, BIR3 domain of XIAP, as stated in text or legend: ~ 10 °C
